Experimental data as given in paper PMC9303312, “Balancing Histone Deacetylase (HDAC) Inhibition and Drug‐likeness: Biological and Physicochemical Evaluation of Class I Selective HDAC Inhibitors” (Chemmedchem, 2022).
Values belong to the compound of their own block, whether it stands above or below them.

Sequences of proteins named here, by UniProt entry; tags and fusion partners are left off.
UniProt Q13547, whole entry: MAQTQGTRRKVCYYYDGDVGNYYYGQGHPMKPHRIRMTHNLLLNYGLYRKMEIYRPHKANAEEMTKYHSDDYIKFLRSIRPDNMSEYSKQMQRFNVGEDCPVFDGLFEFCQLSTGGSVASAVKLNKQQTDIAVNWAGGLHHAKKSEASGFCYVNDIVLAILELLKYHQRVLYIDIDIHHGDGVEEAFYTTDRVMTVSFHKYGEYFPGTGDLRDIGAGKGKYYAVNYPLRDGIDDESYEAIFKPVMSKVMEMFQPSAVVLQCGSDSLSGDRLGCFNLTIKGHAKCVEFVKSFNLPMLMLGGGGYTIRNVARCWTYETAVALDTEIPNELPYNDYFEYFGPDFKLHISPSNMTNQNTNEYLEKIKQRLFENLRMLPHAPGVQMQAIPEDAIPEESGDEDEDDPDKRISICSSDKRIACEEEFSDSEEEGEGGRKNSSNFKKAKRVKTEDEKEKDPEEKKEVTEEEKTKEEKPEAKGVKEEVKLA

Columns and labels:
human recombinant HDAC6 = target: T1, human recombinant HDAC6 (Homo sapiens, UniProt Q9UBN7); experiment: In vitro HDAC inhibition preincubation assay (ZMAL substrate)
T1 sequence (Q9UBN7 1-1215): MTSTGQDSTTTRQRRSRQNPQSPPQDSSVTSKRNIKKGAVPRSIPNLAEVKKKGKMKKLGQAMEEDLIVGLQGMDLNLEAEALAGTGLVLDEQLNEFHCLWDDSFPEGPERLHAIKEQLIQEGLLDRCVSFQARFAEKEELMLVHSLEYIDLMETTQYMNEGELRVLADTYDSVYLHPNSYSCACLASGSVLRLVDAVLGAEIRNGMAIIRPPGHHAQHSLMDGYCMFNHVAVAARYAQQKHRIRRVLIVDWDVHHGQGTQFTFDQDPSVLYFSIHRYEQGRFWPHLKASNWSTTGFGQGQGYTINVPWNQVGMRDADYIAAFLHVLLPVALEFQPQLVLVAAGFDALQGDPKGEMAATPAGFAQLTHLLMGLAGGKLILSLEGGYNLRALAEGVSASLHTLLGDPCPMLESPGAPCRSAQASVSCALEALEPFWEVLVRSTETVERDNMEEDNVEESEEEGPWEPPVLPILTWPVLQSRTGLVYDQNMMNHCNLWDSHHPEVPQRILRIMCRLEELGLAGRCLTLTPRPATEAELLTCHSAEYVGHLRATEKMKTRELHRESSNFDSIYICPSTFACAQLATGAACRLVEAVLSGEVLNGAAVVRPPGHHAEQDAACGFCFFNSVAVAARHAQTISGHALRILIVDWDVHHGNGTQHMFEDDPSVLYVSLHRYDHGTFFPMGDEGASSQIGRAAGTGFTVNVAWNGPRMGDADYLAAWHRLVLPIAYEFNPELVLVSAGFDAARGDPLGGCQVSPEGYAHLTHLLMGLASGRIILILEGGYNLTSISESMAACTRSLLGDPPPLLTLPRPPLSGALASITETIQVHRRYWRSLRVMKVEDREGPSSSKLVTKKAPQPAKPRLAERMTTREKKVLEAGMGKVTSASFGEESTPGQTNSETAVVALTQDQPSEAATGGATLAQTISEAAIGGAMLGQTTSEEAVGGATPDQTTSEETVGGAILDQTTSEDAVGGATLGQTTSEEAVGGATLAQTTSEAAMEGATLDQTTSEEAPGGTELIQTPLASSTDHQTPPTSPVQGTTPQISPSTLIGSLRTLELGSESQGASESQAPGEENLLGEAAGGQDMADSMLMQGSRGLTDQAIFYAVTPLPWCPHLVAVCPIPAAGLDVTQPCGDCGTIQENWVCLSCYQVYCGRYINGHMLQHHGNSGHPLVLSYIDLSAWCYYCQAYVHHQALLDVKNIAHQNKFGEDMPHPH

HDAC1 = HDAC1 (Homo sapiens, UniProt Q13547); experiment: as above
MCF‐7 cells = experiment: Modified wound healing (migration) assay; type: cell-based, human; details: MCF-7, 10 μM, followed over 97 h, compared to DMSO control
Experimental: In a modified wound healing assay (see Figure 10B and 10C, for representative pictures of the time‐dependent wound closure see SI Figure S12) cells were preincubated with 10 μM of the indicated compounds and cell migration was followed over 97 h and compared to the DMSO treated control cells. […]
temperature and then incubated at 4°C overnight. Membranes were rinsed again three times before applying the secondary anti-rabbit IgG HRP-conjugated mAbs (Santa Cruz Biotechnology, Texas, USA) for 90 min. Primary antibodies were diluted 1:500 and the secondary antibody was diluted 1:20.000. After rinsing of the secondary antibody, membranes were detected using Clarity™ECL Western Blotting Substrate (Bio-Rad). For quantitative determination, the StainFree™ technique was employed (Bio-Rad), as well as normalization, against the housekeeping protein GAPDH, which allows the imaging of whole lysates in SDS-PAGE before blotting and normalization against the total protein. Pixel density analysis was performed with the IMAGE LAB software […]
Migration assay. 3D printed (size: 0.5 mm gap) culture-inserts (custom made) were used for pre- […]
GmbH, Hamburg, Germany), in total. […]
a Axiovert 200 microscope (Carl-Zeiss, Jena, Germany). Migration speed was quantified as reduced scratch wound over time. […]

IC50 (human recombinant HDAC6): > 10 µM
SMILES: CC(=O)Nc1ccc(C(=O)Nc2cc(-c3cccs3)ccc2N)cc1 [6 c]

IC50 (HDAC1): 26.2 ± 0.9 nM
SMILES: CN(C)c1ccc(C(=O)N(CC(=O)NC(C)(C)C)Cc2ccc(C(=O)Nc3cc(-c4ccncc4)ccc3N)cc2)cc1 [10 c]

SMILES: O=C(CCCCCCC(=O)Nc1ccccc1)NO [vorinostat, reference compound]
effect on cell migration (wound closure) (MCF‐7 cells): attenuated cell migration comparably and significantly
